Consider one compound from article PMC10081574, “Evaluation of Antiviral Activity of Gemcitabine Derivatives against Influenza Virus and Severe Acute Respiratory Syndrome Coronavirus 2” (ACS Infectious Diseases, 2023).

Experiment [1] has as its system B/Lee/40. The experiment in a line: CPE reduction antiviral assay in Lee-infected MDCK cells (MTT). It counts as cell-based, influenza B virus.
The test system of experiment [2] is A/Puerto Rico/8/34 (H1N1). On the set-up: unit not given beside the values.
Experiment [3] deals with A/Hong Kong/8/68 (H3N2). On the set-up: unit not given beside the values.

In the case of `NC(=O)c1ncn([C@@H]2O[C@H](CO)[C@@H](O)[C@H]2O)n1` [Ribavirin, reference compound], the “SI90 Lee” value in experiment [1] (ratio of CC10 to EC90) was found to be 2.1. Also, in experiment [1] (ratio of CC50 to EC50), the “SI50 Lee” value is given as > 27.0. Moreover, in experiment [2], the “SI50 PR8” value is given as 20.1 ± 2.1 (>14.9) and the “SI90 PR8” value is 79.4 ± 33.1 (3.8). Besides, in experiment [3], the “SI50 HK” value is reported as 20.4 ± 0.9 (>14.7) and the “SI90 HK” value was 59.5 ± 6.7 (5.0).
